According to patent US9205073B2, “Method for treating virus infection using derivative of aniline” (CHINA MEDICAL UNIVERSITY, priority 2014, dated 2015):

Test system: EV71
Assay: Enterovirus infection-induced cytopathic effect / cell survival in RD cells with interferon
Assay type: cell-based, enterovirus type 71
Description: The RD cells were cultured in a 24-well culture plate at an initial density of 3×10^4 per well with 1 ml of 2% FBS-containing MEM medium per well. The cells were incubated in an incubator (37° C., 5% CO2) overnight. The medium was removed until the cells adhered to the plate. 1 ml of fresh 2% FBS-containing MEM medium was simultaneously added into each well. The RD cells were infected with an EV71 virus strain (M.O.I.=0.1). Different concentrations of compound 1 (final concentrations were 0, 2.5, 25 and 125 μM) and/or IFN-β (final concentrations were 0 and 100 unit/ml) were separately added into different wells. The RD cells were incubated in an incubator (37° C., 5% CO2) for 36 hours, and then their morphology was observed by photography. In addition, 200 μl of culture medium supernatant was collected from each well and stored at −80° C. for conducting the viral plaque test of Example 12.

Substance “IFN-β: interferon-β, a type I interferon used in combination with compound 1” has a Cell survival rate (EV71 M.O.I.=0.1, IFN-β 100 unit/ml alone, 36 hours) of 33.1% and a Cell survival rate (no EV71, IFN-β 100 unit/ml, no Compound 1, 36 hours) of 87.35%.
